{
  "sequences": {"note": "By UniProt entry, the sequences of proteins in these tests, tags left out.", "UniProt O77680, whole entry": "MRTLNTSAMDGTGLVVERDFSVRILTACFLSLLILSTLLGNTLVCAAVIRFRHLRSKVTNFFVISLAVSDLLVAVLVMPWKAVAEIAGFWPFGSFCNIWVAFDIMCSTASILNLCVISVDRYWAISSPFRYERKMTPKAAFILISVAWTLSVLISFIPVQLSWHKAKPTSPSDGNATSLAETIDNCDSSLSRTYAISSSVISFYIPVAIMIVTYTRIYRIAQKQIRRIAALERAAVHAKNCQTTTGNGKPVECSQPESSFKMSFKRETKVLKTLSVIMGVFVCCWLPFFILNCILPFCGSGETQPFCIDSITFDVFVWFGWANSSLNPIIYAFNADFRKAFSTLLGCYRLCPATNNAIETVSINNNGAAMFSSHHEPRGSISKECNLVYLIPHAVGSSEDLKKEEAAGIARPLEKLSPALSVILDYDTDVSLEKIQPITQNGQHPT"},
  "source": "patent US9751882B2",
  "about": "“Diaryl[A, G]quinolizidine compound, preparation method therefor, pharmaceutical composition, and uses thereof” (SHANGHAI INSTITUTE OF MATERIA MEDICA, CHINESE ACADEMY OF …, priority 2012, dated 2017)",
  "molecular_target": "dopamine D1 receptor (Macaca mulatta, UniProt O77680)",
  "experiment": "Radioligand binding affinity on dopamine D1 receptor ([3H]-SCH23390)",
  "details": "D1 receptor protein expressed in HEK-293 cells",
  "method": "(1) Determination of the affinity of the diarylo[a,g]quinolizines of formula (I) and derivatives thereof on dopamine D1, dopamine D2, 5-HT1A and 5-HT2A receptors.\nThe compound of the invention at different concentrations (10^−5 M-10^−11 M), an isotope receptor ligand and a receptor protein were loaded into a reaction tube, incubated at 30° C. in a water bath for 60 min, and then terminated in a refrigerator. The mixture was filtered through suction filtration using GF/C glass fiber paper on a Millipore filter (millipore) cell sample collector, and dried. The resulting sample was placed into a 0.5 mL tube, added with 500 μL of liquid scintillation fluid, and counted for measuring the intensity of radioativity.\nFor dopamine D1 receptor: isotope receptor ligand [^3H]-SCH23390 (85.0 Ci/mmol) (D1-selective, purchased from Amersham Corporation), D1 receptor protein expressed in HEK-293 cells;\nFirstly, the above […] were dissolved in DMSO and then diluted with double distilled water to the appropriate concentration (10^−5 M-10^−11 M).\n(+) Butaclamo was purchased from RBI Company, GF/C glass fiber filter paper was purchased from Whatman Co., liquid scintillation fluid (dopamine D1, D2 receptors)/liposoluble scintillation fluid (5-HT1A. 5-HT2A receptor), Beckman LS-6500 multi-function liquid scintillation counter.",
  "data": [
    {"smiles": "COc1cc2c(cc1O)[C@@H]1Cc3sc(CC(C)C)cc3CN1CC2", "note": "[DS006, (S)-2-hydroxy-3-methoxy-10-(2-methylpropyl)-5,8, 12,12a-tetrahydro-6H-benzo[a]thieno[3,2-g]quinolizine]", "values": [
      {"measurement": "D1 receptor inhibition %", "result": 94.29, "unit": "%"}
    ]}
  ]
}
